The list shows a part of the results, in another mix than the full data. Inconclusive results are not listed. Activity calls are given as the source filed them. Rule for the calls, unless noted: active = hit-call score of the fitted dose curve at least 0.9, where 1 is the maximum; inactive = score below 0.9.

Sequences of proteins named here, by UniProt entry; tags and fusion partners are left off.
UniProt P10276, whole entry: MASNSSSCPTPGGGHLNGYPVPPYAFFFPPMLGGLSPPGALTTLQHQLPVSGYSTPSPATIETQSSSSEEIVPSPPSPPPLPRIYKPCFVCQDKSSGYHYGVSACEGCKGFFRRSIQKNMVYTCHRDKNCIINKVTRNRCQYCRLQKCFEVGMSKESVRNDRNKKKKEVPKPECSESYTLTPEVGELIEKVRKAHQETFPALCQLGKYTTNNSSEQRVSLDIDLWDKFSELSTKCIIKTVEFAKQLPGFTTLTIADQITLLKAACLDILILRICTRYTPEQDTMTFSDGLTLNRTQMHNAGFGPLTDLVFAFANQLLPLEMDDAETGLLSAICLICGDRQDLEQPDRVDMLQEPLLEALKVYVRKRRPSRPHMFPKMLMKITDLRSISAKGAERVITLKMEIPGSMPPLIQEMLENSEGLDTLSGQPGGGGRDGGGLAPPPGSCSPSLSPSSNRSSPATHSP
UniProt P37231, whole entry: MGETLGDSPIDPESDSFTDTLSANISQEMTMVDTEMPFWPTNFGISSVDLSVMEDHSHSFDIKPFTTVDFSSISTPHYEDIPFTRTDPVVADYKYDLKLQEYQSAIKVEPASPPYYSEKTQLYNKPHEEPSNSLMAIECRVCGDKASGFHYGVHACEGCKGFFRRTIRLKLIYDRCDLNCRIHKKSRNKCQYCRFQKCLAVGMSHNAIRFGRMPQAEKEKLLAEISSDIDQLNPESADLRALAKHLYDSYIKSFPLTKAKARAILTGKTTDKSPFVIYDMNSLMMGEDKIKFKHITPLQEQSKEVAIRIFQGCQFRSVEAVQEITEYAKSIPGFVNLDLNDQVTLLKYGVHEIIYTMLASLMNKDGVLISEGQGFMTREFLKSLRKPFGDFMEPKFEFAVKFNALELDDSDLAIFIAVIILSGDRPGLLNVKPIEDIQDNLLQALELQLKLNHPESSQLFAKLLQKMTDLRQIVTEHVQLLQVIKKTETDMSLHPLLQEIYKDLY
UniProt P10826, whole entry: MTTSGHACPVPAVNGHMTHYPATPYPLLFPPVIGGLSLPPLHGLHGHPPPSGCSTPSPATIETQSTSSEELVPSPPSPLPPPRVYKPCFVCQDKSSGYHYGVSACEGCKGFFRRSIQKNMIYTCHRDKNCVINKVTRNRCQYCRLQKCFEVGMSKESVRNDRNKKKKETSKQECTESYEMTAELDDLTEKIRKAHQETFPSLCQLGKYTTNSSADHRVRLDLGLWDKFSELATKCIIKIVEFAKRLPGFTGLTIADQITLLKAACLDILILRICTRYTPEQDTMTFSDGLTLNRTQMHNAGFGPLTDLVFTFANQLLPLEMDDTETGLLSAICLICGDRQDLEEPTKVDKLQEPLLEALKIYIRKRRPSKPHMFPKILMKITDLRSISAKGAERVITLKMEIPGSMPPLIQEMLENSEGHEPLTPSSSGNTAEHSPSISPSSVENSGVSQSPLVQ

Experimental findings from PubChem BioAssay (EPA / NIEHS) are described below.

The nature of assay [1]: BSK_4H_Eotaxin3: BioMAP Diversity Plus: 4H Assay for Eotaxin 3 Biomarker Activity (AID 2283000).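 Note: CCL26 protein level quantified by ELISA in parallel with SRB cytotoxicity check.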 The note with it: actives raise or lower the signal; primary human endothelial cells (HUVEC). Summed up: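 Human umbilical vein endothelial cells (BSK_4H system) dosed with test chemical; Eotaxin-3 (CCL26) measured by ELISA 24 h after dosing. Bidirectional curve fitting relative to DMSO negative control as baseline.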

Read-out in assay [2]: Intercellular Adhesion Molecule 1 (ICAM1), ICAM1 (gene 3383)
The experiment in a line: BSK_3C_ICAM1: BioMAP Diversity Plus: 3C Assay for Intercellular Adhesion Molecule 1 (ICAM1) Biomarker Activity (AID 2283003). Conditions: actives raise or lower the signal; primary human endothelial cells (HUVEC). Summed up:
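ELISA read-out of ICAM-1; HUVEC (primary human), 3C system, 24 h post-dosing; bidirectional fit vs DMSO baseline.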

Assay [3] concerns the target Retinoic acid receptor alpha (Homo sapiens) (UniProt P10276). The experiment in a line: ATG_RARa_TRANS: Attagene TRANS-FACTORIAL HepG2 Assay for human Retinoic Acid Receptor alpha (RARa) (AID 2283005; active = hit-call score of the fitted dose curve at least 0.9, where 1 is the maximum). The protocol: (§1) ATG_TRANS is a cell-based, multiplexed-readout assay that uses HepG2, a human liver cell line, with measurements taken at 24 hours after chemical dosing in a 24-well plate.ATG_RARa_TRANS is one of 30 assay component(s) measured or calculated from the ATG_TRANS assay. It is designed to make measurements of mRNA induction, a form of inducible reporter, as detected with fluorescence intensity signals by Reverse transcription polymerase chain reaction (RT-PCR) and Capillary electrophoresis technology.Data from the assay component ATG_RARa_TRANS was analyzed into 1 assay endpoint. This assay endpoint, ATG_RARa_TRANS, was analyzed in the positive analysis fitting direction relative to DMSO as the negative control and baseline of activity. […] Furthermore, this assay endpoint can be referred to as a primary readout, because this assay has produced multiple assay endpoints where this one serves a reporter gene function. […]
(§2) Human liver HepG2 cells are transiently transfected with multiple reporter transcription units (MRTUs) in 6-well plates using FuGene 6 reagent (Roche; 3 ml FuGene/1 mg DNA). […] A major difference between the CIS and TRANS system is that in CIS activities of endogenous TFs are measured, whereas the TRANS assay evaluates changes in activities of exogenous, chimeric NR-Gal4 proteins. […]

Assay [4] can be described thus: BSK_3C_Proliferation: Cell Proliferation Assessment in the BioMAP Diversity Plus: 3C Assay (AID 2283006).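 For AC50: potency may reflect either rise or fall in cell number versus DMSO.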 Conditions: primary human endothelial cells (HUVEC). Summed up:
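HUVEC, sub-confluent; 48 h chemical exposure; 10% TCA fix, 0.1% SRB stain, A560 total protein. Gain or loss of signal fitted both directions vs DMSO control.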

The target of assay [5] is Peroxisome proliferator-activated receptor gamma (Homo sapiens) (UniProt P37231). In words: ATG_PPARg_TRANS: Attagene TRANS-FACTORIAL HepG2 Assay for human Peroxisome Proliferator-activated Receptor-gamma (PPARg) (AID 2283007; active = hit-call score of the fitted dose curve at least 0.9, where 1 is the maximum). Summed up:
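Read-out: reporter mRNA induction, detected by fluorescence after RT-PCR and capillary electrophoresis. Transiently transfected human HepG2 liver cells carrying a chimeric NR-Gal4 construct were dosed for 24 h; activity was fitted upward relative to DMSO.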

The target in assay [6] is human Retinoic Acid Receptor beta (RARb), RARB (gene 5915) (UniProt P10826). The experiment in a line: ATG_RARb_TRANS: Attagene TRANS-FACTORIAL HepG2 Assay for human Retinoic Acid Receptor beta (AID 2283004; active = hit-call score of the fitted dose curve at least 0.9, where 1 is the maximum). The protocol: as §1, with “plate.ATG_RARb_TRANS” for “plate.ATG_RARa_TRANS”, “ATG_RARb_TRANS” for “ATG_RARa_TRANS”, “ATG_RARb_TRANS,” for “ATG_RARa_TRANS,”
as §2

Consider `CC(C)OP(OC(C)C)OC(C)C`, for which the outcome in assay [1], in assay [2], in assay [3], in assay [4] and in assay [5] was inactive.
Take `O=[N+]([O-])c1ccccc1[N+](=O)[O-]`: the outcome in assay [1] and in assay [2] was inactive. The AC50 in assay [4] was active: 3.97 µM.
As for `ClCCOP(OCCCl)OCCCl`, the call in assay [6] was inactive.
`ClCCNCCCl`: the molecule was called inactive in assay [6], in assay [3] and in assay [5].

The AC50 is the concentration at which the activity in the assay is half-maximal.
